# Test system: Kv3.1 α-subunit mRNA
# Experiment: Experiment 1: in situ hybridization of Kv3.1 α-subunit mRNA in brain, chronic PCP rat model of schizophrenia with antipsychotic co-treatment
# Assay type: in vivo
smiles,measurement,setting,value
"Cc1cc2c(s1)Nc1ccccc1N=C2N1CCN(C)CC1 [Olanzapine, olanzapine]",Kv3.1 α-subunit mRNA expression,"DLStr, PCP + drug 3 mg/kg/day",6.84 ± 0.42 PSL/mm^2
same,Kv3.1 α-subunit mRNA expression,"MG, PCP + drug 3 mg/kg/day",24.56 ± 1.41 PSL/mm^2
same,Kv3.1 α-subunit mRNA expression,"SN, PCP + drug 0.3 mg/kg/day",13.27 ± 1.21 PSL/mm^2

# Reference: patent US20030224416A1, “Schizophrenia related gene” (priority 2002, published 2003)
